The source of these data is patent publication US8124087B2, “Methods of controlling bone loss by inhibiting DKK1” (Board of Trustees of the University of Arkansas, priority 2002, dated 2012).

The test system of assay [1] is C2C12 cells. The assay can be described thus: Osteoblast differentiation assay (alkaline phosphatase), 5 days. The format is cell-based, mouse. The settings on record: 50 ng/ml for 5 days. On the procedure:
C2C12 mesenchymal precursor cells (American Type Tissue Culture, Reston, Va.) were cultured in DMEM (Invitrogen, Carlsbad, Calif.) supplemented with 10 percent heat-inactivated fetal calf serum. Alkaline phosphatase activity in C2C12 cells was measured as described (Gallea, et al., 2001; Spinella-Jaegle, et al., 2001). Cell lysates were analyzed for protein content using the micro-BCA assay kit (Pierce, Rockford, Ill.).
Bone morphogenic protein-2 can induce differentiation of the uncommitted mesenchymal progenitor cell line C2C12 (Katagiri, et al., 1994) into osteoblasts through a mechanism that involves Wnt/b-catenin signaling (Bain, et al., 2003; Roman-Roman, et al., 2002). Alkaline phosphatase, a specific marker of osteoblast differentiation, was undetectable in C2C12 cells grown in 5 percent fetal calf serum for 5 days (FIG. 41A). […] This in vitro effect on alkaline phosphatase production was neutralized by a polyclonal anti-DKK1 antibody, but not by a non-specific polyclonal goat IgG. Bone marrow serum with a DKK1 concentration>12 ng/ml from five patients with myeloma inhibited the production of alkaline phosphatase by C2C12 cells treated with BMP-2, and this effect was reversed by the anti-DKK1 antibody, but not by non-specific IgG (FIG. 41B). […]

The test system of assay [2] is C2C12 cells. The assay can be described thus: Alkaline phosphatase (ALP) assay, BMP-2-induced differentiation. It is filed as cell-based, mouse. The settings on record: 72 hrs, DMEM with 2% horse serum. The procedure:
Cells were cultured in DMEM with 2% horse serum including either BMP-2 (200 ng/ml), Wnt3a CM, BPM-2 plus Dkk1, or BMP-2 plus Wnt3a CM for 72 or 96 hr followed by lysis in 150 ml of lysis buffer (20 mM Tris HCl, pH 8 and 150 mM NaCl, 0.2% NP40). ALP activity was measured using ALP kit (Diagnostic Chemical Limited, Exton, Pa.) according to manufacturer instructions. Absorbance The of samples was determined with a Spectra Max340 Microplate Spectrophotometer (Molecular Devices, Sunnyvale, Calif.) at 402 nm. Cell lysates were analyzed for protein content with using the micro-BCA assay kit (Pierce, Rockford, Ill.).
Chemical synthesis of siRNA specific to LRP5/6, GFP, and control siRNA were purchased from Qiagen (Valencia, Calif.). The siRNA were transiently transfected into C2C12 using Lipofectamine according to manufacturer instructions (Invitrogen). RNA was isolated after 24, 48 or 72 hours then subjected to RT-PCR or qPCR for determination of efficacy of target gene silencing.

B1: BMP-2: bone morphogenic protein-2, induces osteoblast differentiation of C2C12 (protein, UniProt P12643 283-396, looked up)
Bone morphogenetic protein 2: QAKHKQRKRLKSSCKRHPLYVDFSDVGWNDWIVAPPGYHAFYCHGECPFPLADHLNSTNHAIVQTLVNSVNSKIPKACCVPTELSAISMLYLDENEKVVLKNYQDMVVEGCGCR
For the molecule B1, in assay [1], the alkaline phosphatase production result is recorded as “induced them to produce alkaline phosphatase”. Besides, the “ALP activity, factor alone” value in assay [2] is “increased ALP activity”.
